## Ab-14 light chain CDR variants: yeast mating affinities

From the AlphaSeq antibody data of Engelhart et al. 2022 (doi:10.1038/s41597-022-01779-4), copy in the FLAb collection.

Antigen: PDVDLGDISGINAS, a 14-residue peptide of the SARS-CoV-2 spike HR2 region.

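The parent was found by panning a naive human phage display library on the peptide. In library AAYL50, one, two or three CDR residues were substituted; doubles and triples were drawn at random. AlphaSeq pools MATa yeast showing the antibodies with MATalpha yeast showing the peptide. After mating in shaken culture at 30 °C for 16 h, diploids were selected and their barcode pairs sequenced. Scores were corrected for input abundance and mapped to Kd with protein pairs of known affinity run in the same pool. The assay was run in three technical replicates.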

Ab-14 is the parent antibody, in scFv form: VH, then a 15-residue (Gly4Ser)3 linker, then VL. The heavy chain is unchanged in all variants.
VH: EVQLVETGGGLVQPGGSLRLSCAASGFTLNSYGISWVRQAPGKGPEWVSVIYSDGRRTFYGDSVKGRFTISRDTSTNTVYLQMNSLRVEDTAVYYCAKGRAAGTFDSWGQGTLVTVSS
VL: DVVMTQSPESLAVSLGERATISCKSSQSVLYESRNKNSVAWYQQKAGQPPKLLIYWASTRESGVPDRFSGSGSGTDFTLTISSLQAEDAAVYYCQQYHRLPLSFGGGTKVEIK

Substitutions are numbered in sequence along the VL above, starting at 1 (not Kabat).
Scale: log10 of Kd in nM, estimated from mating counts; low values are strong binders.
The mean shown is taken over the replicates in which the pair was detected.
Where no diploid with the target was found in that replicate, the entry reads "ND": below detection, most likely a poor binder, though not proof of it.
Parent in this assay: reference entry 0.65, copy in this library 1.68.
Background: pairings of library AAYL50 with three empty control strains gave a value in 18% of cases (median 4.19, 5th percentile 2.99). Values in that range, when seen in few replicates, are hard to tell from nonspecific mating. For each scFv, signals with the empty controls are counted beside the result.

With L30W+A40G+L102H the result was ND, 4.36, 2.55 (mean 3.46; controls 2 of 9).
With S33H+L100N+P101D the result was 1.29, 1.55, 1.36 (mean 1.40; controls 0 of 9).
With E32C+S38I+S62C the result was ND, ND, ND (controls 3 of 9).
With V29C+A40I+R60S the result was ND, ND, ND (controls 1 of 9).
With S28V+R34W+A57T the result was 2.65, 2.51, 2.58 (mean 2.58; controls 3 of 9).
With K24H+L30T+S33W the result was 1.06, 1.08, 1.53 (mean 1.23; controls 1 of 9).
With E32W+Q96G+L102M the result was 2.39, 2.26, 2.83 (mean 2.49; controls 4 of 9).
With K24D+L30F+R60G the result was 1.72, 1.85, 2.07 (mean 1.88; controls 0 of 9).
With K24F+S38R+Y97D the result was 3.36, 3.28, 3.83 (mean 3.49; controls 4 of 9).
With V29W+N35D+L100G the result was 3.76, ND, ND (controls 0 of 9).
With V29P+S33A the result was 0.54, 0.71, 0.78 (mean 0.68; controls 1 of 9).
With L30D+S103P the result was ND, ND, ND (controls 0 of 9).
With A57D+S62H+S103E the result was 1.21, 1.38, 1.43 (mean 1.34; controls 3 of 9).
With N35E+S58L+T59I the result was ND, ND, ND (controls 0 of 9).
With S28M+V29D+Q96N the result was 0.17, 0.41, 0.29 (mean 0.29; controls 3 of 9).
With E32Y+W56V+S62N the result was ND, 4.56, ND (controls 0 of 9).
With Q27N+R34F+W56K the result was 0.05, 0.32, 0.20 (mean 0.19; controls 0 of 9).
With Q27Y+Y97M+H98D the result was ND, ND, ND (controls 0 of 9).
With E32K+W56A+L100T the result was 1.35, 1.28, 1.26 (mean 1.30; controls 0 of 9).
With S28P+R60L+R99G the result was 0.66, 1.03, 0.99 (mean 0.89; controls 1 of 9).
With K36C+N37Y+Q95R the result was 1.13, 1.19, 1.20 (mean 1.17; controls 2 of 9).
With N35W+Y97S+L102R the result was 1.22, 1.38, 1.45 (mean 1.35; controls 2 of 9).
With S58V+T59E+P101S the result was ND, ND, ND (controls 0 of 9).
With K24S+V39C+A57C the result was 4.25, 4.76, 3.89 (mean 4.30; controls 6 of 9).
With W56N+Y97N the result was 1.32, 1.33, 1.30 (mean 1.32; controls 3 of 9).
With Y31S+H98M the result was ND, 3.82, 3.81 (mean 3.82; controls 2 of 9).
With S26R+Y31R+H98P the result was 4.85, 3.28, 3.24 (mean 3.79; controls 4 of 9).
With Q27R+A57V+S58D the result was 2.08, 2.16, 2.28 (mean 2.17; controls 2 of 9).
With V39C+S62R+Q95E the result was 4.50, 3.32, 5.75 (mean 4.52; controls 2 of 9).
With E32V+R34I+Q96K the result was ND, ND, ND (controls 0 of 9).
With A40K+A57R+R99M the result was ND, 5.13, ND (controls 3 of 9).
With Q95Y+L102G the result was 4.95, 4.06, 4.85 (mean 4.62; controls 4 of 9).
With V29T+Y31D+E32T the result was 1.91, 2.22, 1.79 (mean 1.97; controls 0 of 9).
With E32N+S62R+Y97S the result was 0.65, 0.90, 0.87 (mean 0.81; controls 0 of 9).
With Q27G+N35P+E61L the result was 1.70, 1.78, 1.85 (mean 1.78; controls 1 of 9).
With S38E+Q96D the result was 2.70, 2.42, 2.55 (mean 2.55; controls 4 of 9).
With S26P+Q27S+S38N the result was 4.65, 4.58, 3.93 (mean 4.39; controls 7 of 9).
With V29K+Y31I+N35S the result was 2.57, 2.56, 2.50 (mean 2.54; controls 2 of 9).
With S28N+L30T+N37M the result was 1.03, 1.15, 1.32 (mean 1.16; controls 2 of 9).
With N37K+S58I+L102Y the result was ND, ND, ND (controls 1 of 9).
With S33F+S58A the result was 2.27, ND, 2.78 (mean 2.53; controls 0 of 9).